Measurements as given in patent US4801604A (priority 1987, dated 1989).
Like-named read-outs stand apart in the source and are kept apart here.

How the values were obtained:
[1] = tested on: Female CF-1 derived Upjohn mice; assay: Tail flick analgesic test; settings: Example 7 Table 2, SC
[2] = tested on: Female CF-1 derived Upjohn mice; assay: Tail pinch analgesic test; settings: Example 7 Table 2, SC
[3] = tested on: Female CF-1 derived Upjohn mice; assay: HCl writhing analgesic test; settings: Example 7 Table 2, SC
male albino CF-1 mice = assay: CNS identification (preliminary) test: antagonism of HCl-induced writhing; settings: Example 7 Table 2, subcutaneous, 0.15 percent HCl i.p.
CF-1 mice = assay: Maximal transpinal electroshock anti-convulsant test (absence of tonic extensor convulsion); settings: 10 mA; for Electro-Convulsive Shock Antagonism ED50: Example 7 Table 2, subcutaneous, 0.2 sec
laboratory animals = settings: standard laboratory animal tests, cited from earlier work

Compound	Analgesic Screens ED50, Tail Flick [1] [mg/kg]	Analgesic Screens ED50, Tail Pinch [2] [mg/kg]	Analgesic Screens ED50, HCl Writhing [3] [mg/kg]	CNS Id HCl Writhing Protect ED50 (male albino CF-1 mice) [mg/kg]	Electroshock ED50 (95 percent confidence range) (CF-1 mice; Example 3, subcutaneous, 0.2 sec., male CF-1 mice)	Electro-Convulsive Shock Antagonism ED50 (CF-1 mice) [mg/kg]	Analgesic activity of U-50,488 (in words) (laboratory animals)	Analgesic activity of U-50,488 (in words) (laboratory animals; listed as trans-(±)-3,4-dichloro-N-methyl-N-[2-(1-pyrrolidinyl)cyclohexyl]benzeneacetamide)
Cis-3,4-dichloro-N--methyl-N--[2-(1-pyrrolidinyl)-cyclopentyl]benzamide	> 100	> 100	63	> 50	13 (9-17) mg./kg.	32	–	–
CN(C(=O)Cc1ccc(Cl)c(Cl)c1)[C@@H]1CCCC[C@H]1N1CCCC1 (relative stereo)	–	–	–	–	–	–	significant analgesic properties	analgesically active compound
O=C(Cc1ccc(Cl)c(Cl)c1)N[C@@H]1CCC[C@@H]1N1CCCC1 (relative stereo)	–	–	–	> 50	–	50	–	–
